Data published in publication PMC5788404 (Journal of Medicinal Chemistry, 2017).

By UniProt entry, the sequences of proteins in these tests, tags left out. Residues count along the entry.
UniProt P40337, 54-213: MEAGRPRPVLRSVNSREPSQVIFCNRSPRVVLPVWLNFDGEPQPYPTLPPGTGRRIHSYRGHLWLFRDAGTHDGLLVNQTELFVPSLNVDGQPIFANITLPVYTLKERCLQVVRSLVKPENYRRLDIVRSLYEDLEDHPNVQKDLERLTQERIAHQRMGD

How the values were obtained:
[1] = test system: HIF-1α; settings: HeLa HIF-1α stabilization, comparator not named
[2] = biological target: T1, VBC protein (VHL:ElonginB:ElonginC protein complex) (Homo sapiens, UniProt P40337); assay type: binding; settings: for GE (group efficiency): based on FP results, GE = ΔpKd/ΔHA (heavy atoms); for fold loss in binding affinity: relative to the comparator of the sentence (4: methyl to ethyl from 1; 20, 21: comparator not named)
T1 construct: made in house

[3] = biological target: T2, VBC complex (VHL:ElonginB:ElonginC) (Homo sapiens, UniProt P40337); assay type: binding; settings: on the basis of ITC results
T2 construct: made in house

Row | GE (group efficiency) [2] | LE ([3]; LE = −RT ln Kd/NHA) [kcal × mol^-1 × NHA^-1] | LLE ([3]; LLE = pKd–Log D) [kcal × mol^-1 × NHA^-1] | fold loss in binding affinity [2] [fold] | SMILES | fold loss in cellular activity / potency [1] [fold]
1 | –0.11 | 0.25 | 5.92 |  | Cc1ncsc1-c1ccc(CNC(=O)[C@@H]2C[C@@H](O)CN2C(=O)[C@@H](NC(=O)C2COC2)C(C)(C)C)cc1 [Inhibitor 19, (2S,4R)-1-((S)-3,3-Dimethyl-2-(oxetane-3-carboxamido)butanoyl)-4-hydroxy-N-(4-(4-methylthiazol-5-yl)benzyl)pyrrolidine-2-carboxamide] | 4
2 | –0.13 |  |  | 2 | Cc1ncsc1-c1ccc(CNC(=O)[C@@H]2C[C@@H](O)CN2C(=O)[C@@H](NC(=O)C2CC(=O)C2)C(C)(C)C)cc1 [Inhibitor 20, (2S,4R)-1-((S)-3,3-Dimethyl-2-(3-oxocyclobutanecarboxamido)butanoyl)-4-hydroxy-N-(4-(4-methylthiazol-5-yl)benzyl)pyrrolidine-2-carboxamide] | 5
3 | –0.25 |  |  | 20 | CC(=O)N1CC(C(=O)N[C@H](C(=O)N2C[C@H](O)C[C@H]2C(=O)NCc2ccc(-c3scnc3C)cc2)C(C)(C)C)C1 [Inhibitor 21, (2S,4R)-1-((S)-2-(1-Acetylazetidine-3-carboxamido)-3,3-dimethylbutanoyl)-4-hydroxy-N-(4-(4-methylthiazol-5-yl)benzyl)pyrrolidine-2-carboxamide] | 11
